Among the data in ChEMBL document CHEMBL5154945, “Discovery and Optimization of Pyrrolopyrimidine Derivatives as Selective Disruptors of the Perinucleolar Compartment, a Marker of Tumor Progression toward Metastasis” (J Med Chem, 2022) are half-life values, retold here.

The series can be described thus: in vitro. To be noted: CD1, mouse, liver microsomes. A general note: Microsomes from liver hold many membrane-bound enzymes, among them those of drug oxidation.

The half-life is the time needed for the level to fall by half in the phase considered. For the compound `COc1ccc(-c2c(-c3ccc(OC)cc3)n(Cc3ccccc3)c3ncn(CCCO)c(=N)c23)cc1`, the half-life at 1 h worked out at 21.6 min.
